IC50 data for one molecule are collected here from PMC10465358 (Nature Microbiology, 2023).

The structures appear in SMILES notation.

The subject of the experiment is P. bivia GH13. Briefly: BODIPY fluorescent starch amylase assay with purified enzyme.

`C[C@H]1O[C@H](O[C@H]2[C@H](O)[C@@H](O)[C@@H](O[C@H]3[C@H](O)[C@@H](O)C(O)O[C@@H]3CO)O[C@@H]2CO)[C@H](O)[C@@H](O)[C@@H]1N[C@H]1C=C(CO)[C@@H](O)[C@H](O)[C@H]1O` (stereo partly shown) [acarbose]: the IC50 (usually the concentration needed to halve the response being measured) came to 840 nM.
